The target of the test is recombinant human PD-L1-His protein (Origincell Therapeutics Co., Ltd.) (human) (UniProt Q9NZQ7). Kind of test: BLI (Octet RED384), antibody on AHC sensor, PD-L1-His in solution. (In general: Biolayer interferometry detects binding as a change in optical thickness at a sensor tip.)

With anti-PD-L1 antibody Avelumab, the dissociation constant Kd (in general, the concentration at which binding is half-saturated) amounted to 1.03 nM; the dissociation rate constant (koff) (commonly a measure of how fast the partners let go of each other) worked out at 0.000305 s⁻¹; the association rate constant (kon) (as a rule, the rate constant with which the complex forms) was 296000 M⁻¹ s⁻¹.

For the origin of these results see patent US20210261677A1.
